Results published in patent US7070788.

Tests used:
[1] = target: human TSH receptor (CHO-JP09 cells) (human) (UniProt P16473); assay: cell-based or functional assay
[2] = target: porcine TSH receptor (solubilized porcine thyroid membranes) (porcine) (UniProt Q8SPP9); assay: competitive displacement of 125I-bTSH from solubilized porcine thyroid membranes

cAMP stimulation in JP09 cells, EC50 [1]: 0.71 ng/mL | cAMP stimulation in JP09 cells, Relative potency (WT = 1) (fold (WT = 1)) [1]: 9.4 | EC25 of inhibition of 125I-bTSH binding [2]: 7.9 ng/mL
Substance: bovine thyroid stimulating hormone (from UniProt P01217 25-120; P01223 21-132) (ligand)
